Experimental data published in publication PMC11582101, “Unlocking the potential: unveiling tyrphostins with Michael-reactive cyanoacrylate motif as promising inhibitors of human 5-lipoxygenase” (Pflugers Archiv, 2024).

Target: T1, recombinant human 5-LO (r5-LO_WT) (Homo sapiens, UniProt P09917)
T1 sequence (P09917 1-674): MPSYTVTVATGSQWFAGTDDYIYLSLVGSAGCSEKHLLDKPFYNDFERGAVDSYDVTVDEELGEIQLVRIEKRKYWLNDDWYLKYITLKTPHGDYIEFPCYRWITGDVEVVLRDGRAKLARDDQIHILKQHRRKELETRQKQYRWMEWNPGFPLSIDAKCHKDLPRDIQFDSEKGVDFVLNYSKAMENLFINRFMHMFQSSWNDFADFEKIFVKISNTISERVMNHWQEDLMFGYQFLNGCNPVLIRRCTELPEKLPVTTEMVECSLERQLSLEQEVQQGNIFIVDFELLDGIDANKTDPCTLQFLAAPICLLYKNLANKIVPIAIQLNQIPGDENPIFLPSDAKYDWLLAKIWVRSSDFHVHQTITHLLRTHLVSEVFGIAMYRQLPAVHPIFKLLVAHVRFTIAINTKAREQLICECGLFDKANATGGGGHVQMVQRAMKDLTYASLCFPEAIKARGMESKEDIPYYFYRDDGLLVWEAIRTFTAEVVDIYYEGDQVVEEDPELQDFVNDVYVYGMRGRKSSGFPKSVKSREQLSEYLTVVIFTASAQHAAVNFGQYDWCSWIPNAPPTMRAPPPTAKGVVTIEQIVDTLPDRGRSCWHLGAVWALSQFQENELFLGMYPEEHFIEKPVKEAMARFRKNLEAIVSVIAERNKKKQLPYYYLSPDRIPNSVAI
Test: biochemical
Details: IC50 for inhibition of 5-LO product formation

SMILES: CC(C)(C)c1cc(C=C(C#N)C#N)cc(C(C)(C)C)c1O [Tyrphostin A9]
- IC50: 0.8 µM
